According to BindingDB's records for patent US10172858 (Intellikine, 2019):

Legend:
[1] = target: T1, Phosphatidylinositol 4,5-bisphosphate 3-kinase catalytic subunit delta isoform (Homo sapiens, UniProt O00329)
T1 sequence (O00329 whole entry): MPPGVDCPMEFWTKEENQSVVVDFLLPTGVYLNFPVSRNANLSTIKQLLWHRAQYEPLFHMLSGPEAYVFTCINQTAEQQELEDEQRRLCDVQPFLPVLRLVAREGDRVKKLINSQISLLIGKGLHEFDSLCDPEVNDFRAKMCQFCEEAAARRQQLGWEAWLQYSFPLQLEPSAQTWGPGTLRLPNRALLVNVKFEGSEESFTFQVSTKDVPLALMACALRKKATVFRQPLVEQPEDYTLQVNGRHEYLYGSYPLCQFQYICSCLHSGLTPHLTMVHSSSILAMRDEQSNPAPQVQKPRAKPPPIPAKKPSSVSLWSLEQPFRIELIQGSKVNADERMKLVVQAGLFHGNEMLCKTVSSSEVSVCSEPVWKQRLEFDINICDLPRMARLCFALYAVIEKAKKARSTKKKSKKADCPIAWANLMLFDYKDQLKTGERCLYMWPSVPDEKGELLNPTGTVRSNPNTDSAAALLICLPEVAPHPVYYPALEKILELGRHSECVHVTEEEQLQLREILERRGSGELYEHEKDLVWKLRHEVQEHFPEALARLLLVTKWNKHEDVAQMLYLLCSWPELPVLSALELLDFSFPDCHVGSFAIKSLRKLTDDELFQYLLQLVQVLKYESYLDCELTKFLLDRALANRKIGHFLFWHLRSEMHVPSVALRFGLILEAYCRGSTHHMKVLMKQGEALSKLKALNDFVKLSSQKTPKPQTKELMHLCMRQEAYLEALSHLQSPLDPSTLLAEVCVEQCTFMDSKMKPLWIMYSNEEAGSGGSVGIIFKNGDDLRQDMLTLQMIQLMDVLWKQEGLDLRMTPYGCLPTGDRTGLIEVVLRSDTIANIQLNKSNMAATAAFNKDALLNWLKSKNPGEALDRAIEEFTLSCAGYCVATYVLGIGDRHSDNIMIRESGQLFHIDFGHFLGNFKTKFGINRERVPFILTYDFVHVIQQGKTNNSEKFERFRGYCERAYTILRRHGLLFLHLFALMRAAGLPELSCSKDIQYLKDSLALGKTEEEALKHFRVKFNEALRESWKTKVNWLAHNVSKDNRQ

[2] = target: Phosphatidylinositol 4,5-bisphosphate 3-kinase catalytic subunit gamma isoform (Homo sapiens, UniProt P48736)
[3] = target: Serine/threonine-protein kinase mTOR (Homo sapiens, UniProt P42345)

SMILES	IC50 [1] [µM]	IC50 [2] [µM]	IC50 [3] [µM]
CC(=O)Nc1nc2ccc(-c3nn(C(C)C)c4ncnc(N)c34)cc2o1 [US10172858, Table 1.3]	< 10	< 10	< 10
Nc1nc2cc(-c3nn(C4CCC(N5CCOCC5)CC4)c4ncnc(N)c34)ccc2o1 (stereo not given) [US10172858, Table 1.6]	–	< 10	–
CC(C)n1nc(-c2ccc3onc(NC4CC4)c3c2)c2c(N)ncnc21 [US10172858, Table 1.16]	–	< 10	–
